Our source for the activity change values is PubChem BioAssay AID2094 (Broad Institute, 2009).

The list shows a part of the results, in another mix than the full data. Some tests of the compounds listed are not included; inactive here does not mean inactive elsewhere. Active and inactive are the calls of the source. Cut-off read from the data, not from the text of the source: active = activity change below about -75% (passing the limit was not always enough); inconclusive = no clear call, values can overlap the other calls.

The experiment is described as follows: Vibrio harveyi AI-2 quorum sensing modulators, primary screen, JMH597 strain, luminescence/OD600 ratio (AID 2094). Particulars: Vibrio harveyi JMH597 AI-2 luminescence/OD600 ratio, 9 h; at 7.5 µM; active compounds read low; 0 = neutral-control median; strain lacks LuxN and CqsS sensors.
As for `CN1[C@@H]2CC[C@H]1CC(OC(=O)C(O)(c1ccccc1)c1ccccc1)C2` (some centres undefined), the activity change was inactive: 7.58%.
For the molecule `O=C(NCC1(N2CCCCC2)CCCCC1)c1cc([N+](=O)[O-])ccc1Cl`, the activity change is inactive: 22.1%.
As for `Cc1ccc(C(=O)NCC2(N3CCCCC3)CCCCC2)cc1`, the figure is inactive: 17.7%.
As to `COc1cc(SC)ccc1C(=O)NCC1(N(C)C)CCCCC1`, the activity change is inactive: 17.1%.
Regarding `CCN(CC)CC(C)C(C)OC(=O)C(O)(c1ccccc1)c1ccccc1` (centres undefined), the activity change is inactive: -0.527%.
Consider `CC(C)N1C(=O)CC2(CCN(CCOC(=O)C(O)(c3ccccc3)c3ccccc3)CC2)C1=O`, for which the activity change was inactive: 36.3%.
As for `CN(C)C1CCCC1OC(=O)C(O)(c1ccccc1)c1ccccc1` (centres undefined), the figure is inactive: -1.42%.
`CN(C)c1ccc(C(=O)NCC2(N(C)C)CCCCC2)cc1`: the activity change was inactive: 10.7%.
As for `Cc1ccccc1C(=O)NCC1(N2CCCCC2)CCCCC1`, the figure is inactive: 1.11%; as for `COc1ccc(C(=O)NCC2(N(C)C)CCCCC2)cc1`, inactive: 20%.
As for `O=C(NCC1(N2CCCCC2)CCCCC1)c1cccc(Br)c1`, the figure is inactive: 19.2%; as for `Cc1cc(C(=O)NCC2(N3CCCCC3)CCCCC2)ccc1[N+](=O)[O-]`, inactive: 4.71%; as for `CCN1CCCC(OC(=O)C2(O)c3ccccc3C=Cc3ccccc32)C1` (centres undefined), inactive: 23.2%.
The figure for `O=C(NCC1(N2CCCCC2)CCCCC1)c1cc(F)c(F)cc1Cl` is inactive: 11.4%; for `C=CCN1CCN(CCOC(=O)C(O)(c2ccccc2)c2ccccc2)CC1` it is inactive: 11.5%.
Regarding `COc1cc(C(=O)NCC2(N(C)C)CCCCC2)c([N+](=O)[O-])cc1OC`, the activity change is inactive: 20%.
As for `CN(C)C1(CNC(=O)c2ccc(Br)cc2)CCCCC1`, the figure is inactive: 18.2%; as for `O=C(NCC1(N2CCCCC2)CCCCC1)c1cccc(Cl)c1`, inactive: 28.1%.
As for `COc1ccc(Cl)cc1C(=O)NCC1(N(C)C)CCCCC1`, the figure is inactive: -1.38%; as for `COc1cccc(C(=O)NCC2(N3CCCCC3)CCCCC2)c1`, inactive: 34.7%.
For `O=C(OC1CN2CCC1CC2)C(CO)(c1ccccc1)c1ccccc1` (centres undefined), the activity change is inactive: 1.02%.
As for `CC(C)Oc1ccc(C(=O)NCC2(N(C)C)CCCCC2)cc1`, the figure is inactive: 17.8%.
As for `CN(C)c1cccc(C(=O)NCC2(N(C)C)CCCCC2)c1`, the figure is inactive: 13.9%; as for `COc1ccc(Br)c(C(=O)NCC2(N3CCCCC3)CCCCC2)c1`, inactive: 30.5%.
